Patent publication US20200038383A1, “IMMEDIATE-RELEASE ABUSE DETERRENT CO[…] MEDICAMENTS FOR TREATING PAIN, ADD, ADHD AND OTHER SYNDROMES OR DISORDERS” (KEMPHARM, INC., priority 2016, published 2020)

Legend:
[1] = Water solubility / feasibility of intravenous administration
[2] = Oral PK of hydrocodone conjugates in rats (plasma hydrocodone, hydromorphone, intact conjugate by LC-MS/MS)

## nicotinate-hydrocodone [Nicotinate-HC]
[1]
  solubility in water (intravenous administration at oral equivalent doses): hydrophobic
[2]; equivalent to 2 mg/kg hydrocodone freebase
  hydrocodone and hydromorphone plasma concentrations compared with Hydrocodone.BT: below the respective concentrations
[2]; same dose based on hydrocodone freebase
  hydrocodone and hydromorphone AUC values compared with Hydrocodone.BT: within the range of bioequivalence
